Experimental data taken from ChEMBL document CHEMBL1944597, “Synthesis and evaluation of non-basic inhibitors of urokinase-type plasminogen activator (uPA)” (Bioorg Med Chem, 2012).

Species on record: Homo sapiens
Assay: Selectivity ratio of IC50 for recombinant tPA to IC50 for human uPA

- Ratio IC50: > 50
SMILES: N=C(N)c1ccc2cc(C(=O)Nc3ccc(CN)cc3)ccc2c1
